Results from article PMC10958515 (ACS Chemical Neuroscience, 2024).

The chains behind the UniProt entries cited, without tags or fusion partners.
UniProt Q9UQD0, whole entry: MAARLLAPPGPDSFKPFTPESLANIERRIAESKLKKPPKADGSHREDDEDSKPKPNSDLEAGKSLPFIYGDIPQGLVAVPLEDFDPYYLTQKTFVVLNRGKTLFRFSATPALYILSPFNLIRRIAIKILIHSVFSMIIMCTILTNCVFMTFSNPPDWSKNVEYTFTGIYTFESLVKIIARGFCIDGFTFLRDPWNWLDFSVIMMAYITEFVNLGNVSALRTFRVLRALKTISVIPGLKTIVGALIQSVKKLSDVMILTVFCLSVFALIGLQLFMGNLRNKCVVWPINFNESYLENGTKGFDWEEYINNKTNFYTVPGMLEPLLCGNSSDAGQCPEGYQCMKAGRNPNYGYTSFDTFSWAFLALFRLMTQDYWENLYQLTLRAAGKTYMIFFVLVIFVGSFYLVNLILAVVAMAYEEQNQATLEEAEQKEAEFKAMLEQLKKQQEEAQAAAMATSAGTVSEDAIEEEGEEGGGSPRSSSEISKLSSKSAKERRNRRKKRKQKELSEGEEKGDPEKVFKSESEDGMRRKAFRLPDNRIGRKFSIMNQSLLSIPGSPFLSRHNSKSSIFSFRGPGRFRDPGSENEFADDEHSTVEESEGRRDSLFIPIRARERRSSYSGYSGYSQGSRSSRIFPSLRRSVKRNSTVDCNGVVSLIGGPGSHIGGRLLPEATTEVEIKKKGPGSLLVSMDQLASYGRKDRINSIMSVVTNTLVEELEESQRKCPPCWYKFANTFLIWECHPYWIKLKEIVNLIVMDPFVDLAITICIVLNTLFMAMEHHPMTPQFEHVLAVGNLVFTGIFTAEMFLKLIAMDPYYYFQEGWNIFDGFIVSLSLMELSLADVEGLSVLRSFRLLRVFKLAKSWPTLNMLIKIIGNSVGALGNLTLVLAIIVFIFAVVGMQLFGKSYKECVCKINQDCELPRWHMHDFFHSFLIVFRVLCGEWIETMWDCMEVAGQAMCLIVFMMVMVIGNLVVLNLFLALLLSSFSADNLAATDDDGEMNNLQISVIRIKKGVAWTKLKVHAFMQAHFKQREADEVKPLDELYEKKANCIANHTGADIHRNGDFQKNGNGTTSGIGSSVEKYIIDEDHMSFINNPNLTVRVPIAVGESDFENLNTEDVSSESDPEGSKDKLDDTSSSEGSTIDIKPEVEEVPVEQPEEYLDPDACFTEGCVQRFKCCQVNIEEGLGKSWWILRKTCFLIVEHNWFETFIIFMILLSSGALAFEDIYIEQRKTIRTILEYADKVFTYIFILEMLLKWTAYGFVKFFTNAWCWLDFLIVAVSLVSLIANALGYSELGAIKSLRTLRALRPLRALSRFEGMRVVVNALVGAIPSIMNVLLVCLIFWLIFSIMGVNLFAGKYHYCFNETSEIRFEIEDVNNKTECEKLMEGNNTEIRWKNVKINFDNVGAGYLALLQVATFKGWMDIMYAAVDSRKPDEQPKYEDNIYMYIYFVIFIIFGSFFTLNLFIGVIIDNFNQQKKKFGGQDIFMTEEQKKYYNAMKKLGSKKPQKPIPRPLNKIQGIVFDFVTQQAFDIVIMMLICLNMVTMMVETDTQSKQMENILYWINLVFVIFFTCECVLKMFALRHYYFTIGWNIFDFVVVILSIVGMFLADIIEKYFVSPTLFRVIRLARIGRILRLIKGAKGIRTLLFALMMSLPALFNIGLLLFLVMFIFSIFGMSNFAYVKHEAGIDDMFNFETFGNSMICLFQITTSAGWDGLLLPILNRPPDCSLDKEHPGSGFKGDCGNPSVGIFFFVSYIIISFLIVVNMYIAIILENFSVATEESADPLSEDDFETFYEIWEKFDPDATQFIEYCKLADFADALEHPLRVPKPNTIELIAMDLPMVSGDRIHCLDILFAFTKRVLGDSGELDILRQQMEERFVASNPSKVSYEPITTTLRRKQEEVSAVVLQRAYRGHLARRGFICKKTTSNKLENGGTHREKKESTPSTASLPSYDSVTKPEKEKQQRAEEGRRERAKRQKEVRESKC

Biological target: NaV1.6 (Homo sapiens, UniProt Q9UQD0)
Experiment: Kinetics of compound equilibration at V0.5 holding potential
Format: cell-based
Method in brief: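 Qube automated patch clamp on cells expressing human NaV1.6, 27 °C, CsF-based internal and 140 mM NaCl external solution. Cells are held at their empirically derived V0.5 for 100 s while inhibition is tracked. Observed rates come from single-exponential fits. Kobs is plotted against concentration and fitted with a straight line (Kobs = kon·[CPD] + koff) to give kon.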

NC(=O)N1c2ccccc2C=Cc2ccccc21 [carbamazepine]
kon: 32800 M⁻¹ s⁻¹
